# Only a selection was taken, and hits are over-represented in it overall.
# HCMV NEC inh = cytomegalovirus nuclear egress complex inhibition. HTRF UL50-UL53 interaction, normalized percent inhibition. inhibition, % (test concentration not listed). hit rate 0.15% among 190,000; in the data active means inhibition above about 27%, passing the limit was not always enough
# GIV Gai3 FP = blocks GIV peptide binding to rat Galpha-i3. P08753. Galpha-i3/FITC-GIV peptide fluorescence polarization, 90 min; stronger effect = lower value; scaled: aluminum fluoride 0%, vehicle 100%. percent of control (FP), % (concentration not given with the values). hit rate 0.42% among 210,000. AID 1224905;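 active means replicate mean at 85% of control or lower, very high polarization wells dropped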;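 further: wells of about 15 µL received 100 nL stock; the first replicate is given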
# GIV Gai FP conf = confirmation of inhibitors of GIV binding to rat Galpha-i3 | FITC-GIV peptide binding to Galphai3, fluorescence polarization; hits give low values | hit rate 38% among 580 | shares compounds with GIV Gai3 FP | fluorescence polarization, mP at 100 µM;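 active means inhibition score of 15 or more, meaning 100 minus mean polarization as percent of control over three replicates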;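 further: lower mP means peptide displaced from Galphai3 so more inhibition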
# GIV-Gai AS conf = confirmation of inhibitors of GIV binding to human Galpha-i3; shares compounds with GIV Gai3 FP; AlphaScreen Galphai3-GIV binding, purified proteins, 90 min; hits give low values; AlphaScreen counts at 100 µM; hit rate 39% among 580; AID 1259351;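 active means inhibition score at or above a set limit, where the score is 100 minus the three-replicate mean percent of control signal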
# The depositor's hits bear a star; . = no result given.
SMILES,HCMV NEC inh,GIV Gai3 FP,GIV Gai FP conf,GIV-Gai AS conf
CC(C)CCNC(=O)c1cc(-c2ccc(Br)s2)nc2ccccc12,-7,91,86,34180
CCCCN(C)CCCNC(=O)c1cc(-c2ccc(Br)s2)nc2ccccc12,-93,106,.,.
O=C(NCCNc1ncnc2scc(-c3ccccc3)c12)c1cccs1,.,96,.,.
COCCCNC(=O)C(C)C1CCN(S(=O)(=O)c2cccs2)CC1 (configuration not stated),.,104,.,.
O=c1cc(Cn2nc3c(-c4nc(-c5ccccc5)no4)cccn3c2=O)nc2ccccn12,.,90,42*,27964
CCOC(=O)Cn1nc2c(-c3nc(-c4ccc(Cl)cc4)no3)cccn2c1=O,.,106,.,.
C=CCC1S/C(=N/N=C/c2ccccc2)NC1=O (configuration not stated),0,103,.,.
O=C(NCc1ccccc1)c1cccc(C2CCCN(C(=O)c3ccccc3)C2)c1 (configuration not stated),6,104,.,.
COc1cccc(-c2nn(C)c3sc(C(=O)NCC4COc5ccccc5O4)cc23)c1 (configuration not stated),-10,99,.,.
N#C/C(=C1\CCCN1)c1ccccn1,-12,.,.,.
COC(=O)c1ccc(-c2c3c(nc4nc(N)[nH]c(=O)c24)-c2ccccc2C3=O)cc1,-75,75*,75,26602
CCOC(=O)c1c(C)nc2c(c1-c1ccc(OC)c(OC)c1)C(=O)c1ccccc1-2,-22,.,.,.
COC(=O)c1cc(=O)n(-c2ccccc2C(F)(F)F)[nH]1,-11,108,.,.
CCn1c(CSc2nc(C)cc(C)n2)nnc1SCc1ccccc1,-5,108,.,.
CN(CCCC(=O)O)S(=O)(=O)c1ccc2c(c1)Cc1cc(S(=O)(=O)N(C)CCCC(=O)O)ccc1-2,.,83*,50*,26370*
CCCCN(C)S(=O)(=O)c1ccc2c(c1)CC(C)N2C(C)=O (configuration not stated),-17,100,.,.
COc1ccc(Oc2coc3cc(OC(=O)c4ccc(Br)cc4)ccc3c2=O)cc1,.,98,.,.
O=C(/C=C/Sc1nc2cc(Cl)c(F)cc2[nH]1)c1ccccc1,-21,104,.,.
Cc1ccc2nc(S/C=C/C(=O)c3ccccc3)[nH]c2c1,-11,89,62,38936
CCCn1c(N)c(C(=O)CN2c3ccccc3CC2C)c(=O)n(C)c1=O (configuration not stated),-22,.,.,.
CCOC(=O)C1CCN(C(=O)c2cc3n(n2)CC(C)(C(=O)NC2CCCC2)N(C)C3=O)CC1 (configuration not stated),-6,99,.,.
COc1ccc(-c2csc3nc(C)cc(C)[n+]23)cc1,-35,.,.,.
CCc1ccccc1N1C(=O)N(Cc2cc(=O)n3ccccc3n2)c2ccccc2S1(=O)=O,.,87,82,31171
Cc1cccc(N2C(=O)N(Cc3cc(=O)n4ccccc4n3)c3ccccc3S2(=O)=O)c1,.,102,.,.
O=C1C=C(O)c2cccc3cccc1c23,-115,83*,59,15097*
# Remaining list, next part:
SMILES,HCMV NEC inh,GIV Gai3 FP,GIV Gai FP conf,GIV-Gai AS conf
O=C1NC(=O)c2cccc3cccc1c23,-92,105,.,.
CC(C)(C)NC(=O)CCN1C(=O)c2ccccc2S1(=O)=O,-2,101,.,.
O=C(N=Nc1c(O)[nH]c(=O)[nH]c1=O)c1ccccn1,-19,105,.,.
O=C(N=Nc1c2ccccc2c2nc3no[nH]c3nc12)c1ccccc1O,-10,77*,66,12405*
C/C=C(\C)CN1CCN(c2ccccc2)CC1,10,108,.,.
C/C(=N/N1CCN(c2ccccc2)CC1)c1ccccc1,-22,85*,79,33751
CCn1c(=O)cc(Nc2ccc(C)c(C)c2)[nH]c1=O,10,102,.,.
CCOCCOC(=O)C1=C(C)NC2=C(C(=O)CC(c3ccc(OC)cc3)C2)C1c1cc(Cl)c(O)c(OC)c1 (configuration not stated),-17,106,.,.
N#CC(c1ccccc1)c1ccccc1C(=O)c1ccccc1 (configuration not stated),-10,105,.,.
CCN(CC)c1ccc2c(c1)OC(N)=C(C#N)C2c1cccc(F)c1 (configuration not stated),-18,108,115,21637
N#CC1=C(N)Oc2cc(O)ccc2C1c1ccccc1 (configuration not stated),-10,104,.,.
CCOC(=O)c1ccc(N2C(=O)/C(=C/c3ccc(Cl)cc3)C=C2c2ccccc2)cc1,.,106,.,.
c1cc2c(cc1CNc1nc3nonc3nc1NCc1ccc3c(c1)OCO3)OCO2,-2,107,.,.
CCOC(=O)c1nc2cc(C)c(C)cc2nc1NCc1ccc2c(c1)OCO2,-12,80*,62,44491
CC(C)c1cc(C2CCCN2C(=O)Nc2ccc(Br)cc2F)on1 (configuration not stated),.,104,.,.
COc1ccc(N2C(=O)NC(=O)/C(=C\c3ccc(OCC(=O)O)c(Br)c3)C2=O)cc1,-17,96,.,.
COc1ccc(N2C(=O)/C(=C/c3ccc(OCC(=O)O)c(Br)c3)C(=O)NC2=S)cc1,-34,78*,45*,20466*
O=C(NCCc1nc2ccccc2[nH]1)c1ccc(Cl)c(Cl)c1,.,106,.,.
O=C(O)C1CN=C(Cc2ccccc2)N1 (configuration not stated),1,98,.,.
NC(=O)CN1C(=O)Cc2ccccc2C1=O,76,63*,58*,12845*
O=C(O)CCN1C(=O)Cc2ccccc2C1=O,104,.,.,.
O=S(=O)(c1ccc2c(c1)OCCO2)N1CCN(c2ccnc3cc(Cl)ccc23)CC1,3,.,.,.
CN(C)c1nc2n(c(=O)c1Cc1ccccc1)CCCS2,-4,103,.,.
COc1ccc(/C=C2\C=C(c3ccccc3)N(c3ccc(Br)cc3C)C2=O)cc1,.,34*,65,40529
COc1ccc(/C=C2\C=C(c3ccccc3)N(c3ccc(Br)cc3C)C2=O)cc1Br,.,110,.,.

# Some of these compounds in order of SMILES length, low to high.
SMILES,HCMV NEC inh,GIV Gai3 FP,GIV Gai FP conf,GIV-Gai AS conf
NC(=O)CN1C(=O)Cc2ccccc2C1=O,76,63*,58*,12845*
C/C(=N/N1CCN(c2ccccc2)CC1)c1ccccc1,-22,85*,79,33751
N#CC(c1ccccc1)c1ccccc1C(=O)c1ccccc1 (configuration not stated),-10,105,.,.
O=C(N=Nc1c(O)[nH]c(=O)[nH]c1=O)c1ccccn1,-19,105,.,.
O=C(NCCc1nc2ccccc2[nH]1)c1ccc(Cl)c(Cl)c1,.,106,.,.
O=S(=O)(c1ccc2c(c1)OCCO2)N1CCN(c2ccnc3cc(Cl)ccc23)CC1,3,.,.,.

# Later entries
SMILES,HCMV NEC inh,GIV Gai3 FP,GIV Gai FP conf,GIV-Gai AS conf
Cc1c(C(=O)NC(C)C)oc2c1-c1[nH]ncc1CC2,70*,69*,51*,26222*
Cc1cccc(NC(=O)c2oc3c(c2C)-c2[nH]ncc2CC3)c1C,-7,103,.,.
O=C(c1ccc2c(c1)OCO2)N1CCN(Cc2cc(=O)n3nc(-c4ccccc4F)sc3n2)CC1,.,104,.,.
O=C(O)CC(C(=O)O)N1C(=O)/C(=C\c2ccco2)SC1=S (configuration not stated),-20,86,53*,3647*
O=C(O)C(Cc1ccccc1)N1C(=O)/C(=C\c2ccco2)SC1=S (configuration not stated),-23,91,.,.
CC(C)n1c(CN2CCCCC2)nc2cc(NC(=O)C3CCCCC3)ccc21,12,101,.,.
O=C1/C(=C/c2cccnc2)CC/C1=C\c1cccnc1,.,90,.,.
O=C1/C(=C/c2cccnc2)CCC/C1=C\c1cccnc1,19,49*,53*,32981
CCCNc1ccc(-c2nc(-c3ccco3)no2)cc1[N+](=O)[O-],-12,96,.,.
CC(C)Nc1ccc(-c2nc(-c3ccco3)no2)cc1[N+](=O)[O-],-4,90,81,30875
COc1ccc(NC(=O)C2Cc3ccccc3CN2C(=O)c2ccccc2)cc1 (configuration not stated),-39,.,.,.
C=C(C)CNC(=S)N1CCSC1=Nc1ccccc1OC,-34,.,.,.

# Assay outcomes deposited in PubChem by ICCB-Longwood Screening Facility, Harvard Medical School.
